Drawing on patent publication US8859534B2, “2-carboxamide-7-piperazinyl-benzofuran derivatives” (AstraZeneca AB, priority 2009, dated 2014), this text covers Ki for eight molecules.

Protein sequences, listed by entry. Tags and fused reporters are not part of them.
UniProt P08908, whole entry: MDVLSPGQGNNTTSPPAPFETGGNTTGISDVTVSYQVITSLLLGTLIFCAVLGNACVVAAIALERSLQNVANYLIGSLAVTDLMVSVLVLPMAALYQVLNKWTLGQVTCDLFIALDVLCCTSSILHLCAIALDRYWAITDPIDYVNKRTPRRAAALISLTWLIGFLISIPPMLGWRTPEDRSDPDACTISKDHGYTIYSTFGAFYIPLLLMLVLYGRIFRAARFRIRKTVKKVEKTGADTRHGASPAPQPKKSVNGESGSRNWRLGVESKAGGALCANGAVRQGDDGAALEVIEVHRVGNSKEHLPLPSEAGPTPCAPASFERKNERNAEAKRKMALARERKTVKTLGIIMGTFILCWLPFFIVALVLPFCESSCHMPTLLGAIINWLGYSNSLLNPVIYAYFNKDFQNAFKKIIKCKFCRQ

Broadly, the Ki is a measure of affinity in units of concentration, obtained from inhibition or displacement. A high value points to lower affinity.

In this assay the target is 5-HT1A receptor (Homo sapiens (Human), UniProt P08908). Put plainly: 5-HT1A receptor competition binding assay (SPA, [3H]-8-OH-DPAT). To be noted: membranes of CHO cells expressing 5-HT1A receptors; radioligand [3H]-8-OH-DPAT 0.15-0.2 nM. An excerpt: Assays that were used to measure affinity of the compounds of the present invention for 5-HT1A and 5-HT1B receptors are described in J. Recept Signal Transduct. Res. 22:483-495 (2002) and Naunyn-Schmiedeberg's Arch Pharmacol. 356:328-334 (1997) and incorporated by reference herein. These assays were be used with some modifications:
For the binding assay stably transfected chinese hamster ovary (CHO) cell lines expressing 5-HT1A receptors or 5-HT1B receptors were harvested by centrifugation at 300×g for 10 min and resuspended in 10 mM Tris-HCl, 5 mM EDTA at pH 7.4. The cells were pooled, recentrifuged and resuspended before homogenisation using a Dounce homogeniser (“type B”). Cell membranes were centrifuged at 48 000×g for 10 min and then resuspended in harvesting buffer using an Ultra-Turrax T8 (IKA Labortechnik, Germany), aliquots were stored frozen in −70° C.
Frozen membrane preparations were thawed, homogenized with an Ultra-Turrax and mixed with SPA beads (YSI coated WGA, GE Healthcare/Amersham, Buckinghamshire, UK) in assay buffer containing 50 mM Tris-Base, 4 mM MgCl2, 4 mM CaCl2 (only 5-HT1B), 1 mM EDTA, and adjusted to pH 7.4 with HCl. […] The binding assays were performed in 384-well plates in a final volume of 90 μL/well with the following additions: 9 μL binding buffer; 1 μL compound/DMSO/nonspecific; 20 μL radioligand; and 60 μL beads/membrane mixture. Non-specific binding was defined by using 10 μM WAY100635 for 5-HT1A and 10 μM Methiothepin for 5-HT1B. The assay plates were incubated for 4 hours where after the plates are counted in a Wallac 1450 Microbeta Trilux counter (PerkinElmer LifeScience, US) or similar. Data from the experiments were analyzed using a four parameter logistic equation as follows: Y=Bottom+(Top-Bottom)/1+10^(LogEC50-X)nH.

For the molecule `COc1ccnc(CCN2CCN(c3cccc4cc(C(=O)N(C)C)oc34)CC2)c1` [Example 39, 7-(4-(2-(4-Methoxypyridin-2-yl)ethyl)piperazin-1-yl)-N,N-dimethylbenzofuran-2-carboxamide], the affinity, expressed as Ki, was 0.32 nM.

In the case of `CC(=O)N1CCC(NC(=O)c2cc3cccc(N4CCN(CCc5ccccn5)CC4)c3o2)CC1` [Example 6, N-(1-Acetylpiperidin-4-yl)-7-(4-(2-(pyridin-2-yl)ethyl)piperazin-1-yl)benzofuran-2-carboxamide], the Ki is 6.4 nM. This Ki is about 20-fold higher than that of the molecule before.

With `CC(=O)N1CCc2cc(CCN3CCN(c4cccc5cc(C(=O)N6CCC6)oc45)CC3)ccc21` [Example 49, 1-(5-(2-(4-(2-(Azetidine-1-carbonyl)benzofuran-7-yl)piperazin-1-yl)ethyl)indolin-1-yl)ethanone], the affinity corresponds to a Ki of 0.16 nM.

`Cn1cnc(CCNC(=O)c2cc3cccc(N4CCN(CCc5ccccn5)CC4)c3o2)c1` [Example 30, N-(2-(1-Methyl-1H-imidazol-4-yl)ethyl)-7-(4-(2-(pyridin-2-yl)ethyl)piperazin-1-yl)benzofuran-2-carboxamide]: affinity was put at a Ki of 1.1 nM. Against the preceding molecule, the Ki is about 6.9-fold higher.

Turning to `CN(C)C(=O)c1cc2cccc(N3CCN(CCc4cc(C#N)ccn4)CC3)c2o1` [Example 41, 7-(4-(2-(4-Cyanopyridin-2-yl)ethyl)piperazin-1-yl)-N,N-dimethylbenzofuran-2-carboxamide], the affinity, expressed as Ki, was 1.3 nM.

On to `O=C(NC1CC1)c1cc2cccc(N3CCN(CCc4ccccn4)CC3)c2o1` [Example 13, N-Cyclopropyl-7-(4-(2-(pyridin-2-yl)ethyl)piperazin-1-yl)benzofuran-2-carboxamide], for which the Ki was 0.55 nM.

With `COc1cccc(CCN2CCN(c3cccc4cc(C(=O)N5CCC5)oc34)CC2)n1` [Example 45, Azetidin-1-yl(7-(4-(2-(6-methoxypyridin-2-yl)ethyl)piperazin-1-yl)benzofuran-2-yl)methanone], the affinity corresponds to a Ki of 0.34 nM.

`O=C(NCc1ccc2c(c1)OCO2)c1cc2cccc(N3CCN(CCc4ccccn4)CC3)c2o1` [Example 10, N-(Benzo[d][1,3]dioxol-5-ylmethyl)-7-(4-(2-(pyridin-2-yl)ethyl)piperazin-1-yl)benzofuran-2-carboxamide] yielded an inhibition constant (Ki) of 0.38 nM. This Ki and that of the molecule before are within 1.5-fold of each other.
